Source: ChEMBL document CHEMBL1125689, “Structure-activity studies on a potent antagonist to organophosphate-induced toxicity” (1991)
pIC50: −log10 of the molar value.

By UniProt entry, the sequences of proteins in these tests, tags left out. Residues count along the entry.
UniProt P23795, 31-613 limits assumed: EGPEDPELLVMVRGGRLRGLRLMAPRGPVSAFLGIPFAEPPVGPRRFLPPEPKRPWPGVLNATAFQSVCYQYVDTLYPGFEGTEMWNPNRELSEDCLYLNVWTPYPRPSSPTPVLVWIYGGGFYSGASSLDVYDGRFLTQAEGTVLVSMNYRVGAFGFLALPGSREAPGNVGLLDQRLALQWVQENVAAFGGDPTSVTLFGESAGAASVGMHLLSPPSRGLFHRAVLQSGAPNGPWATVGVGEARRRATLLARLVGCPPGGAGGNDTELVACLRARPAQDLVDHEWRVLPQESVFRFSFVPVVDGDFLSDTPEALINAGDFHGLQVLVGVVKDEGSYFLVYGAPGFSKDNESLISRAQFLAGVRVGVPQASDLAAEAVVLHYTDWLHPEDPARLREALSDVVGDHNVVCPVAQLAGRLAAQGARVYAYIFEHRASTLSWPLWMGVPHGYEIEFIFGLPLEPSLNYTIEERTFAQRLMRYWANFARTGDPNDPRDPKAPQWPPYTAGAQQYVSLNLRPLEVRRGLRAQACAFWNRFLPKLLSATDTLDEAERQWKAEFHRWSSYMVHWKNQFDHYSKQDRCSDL

Assays:
Mus musculus [1] = assay: Ability to antagonize paraoxon-induced lethality in mice.(umol/kg required to protect 50% of the mice for 24 h versus a LD99 dose of paraoxon)
Mus musculus [2] = assay: Compound was evaluated for therapeutic index (LD50 / ED50), in mice
Acetylcholinesterase = Acetylcholinesterase (Bos taurus, UniProt P23795); assay: Concentration required to inhibit hydrolytic activity of bovine erythrocyte acetylcholinesterase by 50%
Mus musculus [3] = species: Mus musculus; assay: Compound was evaluated for the survival time of mice with the combination of Compound 1
Mus musculus [4] = assay: Ability to antagonize paraoxon (1.0 mg/kg sc)-induced motor incoordination in mice.
Mus musculus [5] = species: Mus musculus; assay: Compound was evaluated for the survival time of mice with the combination of Pyridostigmine
Mus musculus [6] = species: Mus musculus; assay: Compound was evaluated for the survival time of mice with the combination of physostigmine

## C[N+](C)(CC(=O)c1ccc(-c2ccc(C(=O)C[N+](C)(C)CC3CCCCO3)cc2)cc1)CC1CCCCO1.[Br-].[Br-] (stereo not drawn)
Mus musculus [1]
  PD50: 0.7 µM/kg
Mus musculus [2]
  Therapeutic index: 10

## C[N+](C)(CC(=O)c1ccc(-c2ccc(C(=O)C[N+](C)(C)CC3CCOCO3)cc2)cc1)CC1CCOCO1 (stereo not drawn)
Acetylcholinesterase
  pIC50: 4.85

## C[N+](C)(CC(=O)c1ccccc1)CC1OCCCO1
Acetylcholinesterase
  pIC50: < 4.00

## CCOP(=O)(OCC)Oc1ccc([N+](=O)[O-])cc1.C[N+](C)(CC(=O)c1ccc(-c2ccc(C(=O)C[N+](C)(C)CC3OCCCO3)cc2)cc1)CC1OCCCO1.[Br-].[Br-]
Mus musculus [3]
  Survival time: 24 h

## CN(C)C(=O)Oc1ccc[n+](C)c1
Mus musculus [1]
  PD50: 0.66 µM/kg
Mus musculus [4]
  ED50: 0.0136 µmol/kg

## C[N+](C)(CC(=O)c1ccc(-c2ccc(C(=O)C[N+](C)(C)CC3OCCCO3)cc2)cc1)CC1OCCCO1
Acetylcholinesterase
  pIC50: 8.52

## C[N+](C)(CC(=O)c1ccc(-c2ccccc2)cc1)CC1OCCCO1
Acetylcholinesterase
  pIC50: 4.70

## CCOP(=O)(OCC)Oc1ccc([N+](=O)[O-])cc1.CN1C=C(OC(=O)N(C)C)C=CC1
Mus musculus [5]
  Survival time: < 2 min

## C[N+](C)(CC(=O)c1ccc(-c2ccc(C(=O)C[N+](C)(C)CC3CCCCC3)cc2)cc1)CC1CCCCC1
Acetylcholinesterase
  pIC50: 4.60

## C[N+](C)(CC(=O)c1ccc(-c2ccc(C(=O)C[N+](C)(C)CC3OCCCO3)cc2)cc1)CC1OCCCO1.[Br-].[Br-]
Mus musculus [1]
  PD50: 0.019 µM/kg
Mus musculus [2]
  Therapeutic index: 380
Mus musculus [4]
  ED50: 0.0031 µmol/kg

## C[N+](C)(C)CC1OCCCO1
Acetylcholinesterase
  pIC50: < 4.00

## C[N+](C)(CC(=O)c1ccc(-c2ccc(C(=O)C[N+](C)(C)CC3OCCO3)cc2)cc1)CC1OCCO1
Acetylcholinesterase
  pIC50: 5.00

## CCOP(=O)(OCC)Oc1ccc([N+](=O)[O-])cc1.CNC(=O)Oc1ccc2c(c1)[C@]1(C)CCN(C)[C@@H]1N2C
Mus musculus [6]
  Survival time: < 2 min

## C[N+](C)(CC(=O)c1ccc(-c2ccc(C(=O)C[N+](C)(C)CC3CCCCO3)cc2)cc1)CC1CCCCO1 (stereo not drawn)
Acetylcholinesterase
  pIC50: 5.16
